{"sequences": {"note": "Protein sequences, listed by entry. Tags and fused reporters are not part of them.", "UniProt Q04206, whole entry": "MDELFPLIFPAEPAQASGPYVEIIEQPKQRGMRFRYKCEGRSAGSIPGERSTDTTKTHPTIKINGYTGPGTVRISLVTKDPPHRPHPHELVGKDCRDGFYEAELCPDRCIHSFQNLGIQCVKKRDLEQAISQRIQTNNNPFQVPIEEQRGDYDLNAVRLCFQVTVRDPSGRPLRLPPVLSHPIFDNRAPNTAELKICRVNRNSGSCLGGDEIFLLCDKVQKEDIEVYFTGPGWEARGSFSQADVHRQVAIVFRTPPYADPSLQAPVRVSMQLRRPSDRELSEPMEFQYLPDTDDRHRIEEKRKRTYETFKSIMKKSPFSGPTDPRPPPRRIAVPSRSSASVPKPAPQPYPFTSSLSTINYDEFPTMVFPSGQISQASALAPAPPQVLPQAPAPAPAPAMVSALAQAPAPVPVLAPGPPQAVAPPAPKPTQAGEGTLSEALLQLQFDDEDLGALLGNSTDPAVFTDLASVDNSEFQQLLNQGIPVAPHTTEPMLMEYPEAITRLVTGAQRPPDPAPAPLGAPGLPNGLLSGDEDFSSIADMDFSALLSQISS"}, "source": "BindingDB's records for doi:10.1021/acs.jnatprod.9b00140", "about": "(University of Illinois At Chicago, 2019)", "target": "Transcription factor p65 (Human, UniProt Q04206)", "assay": "Inhibition of TNF alpha stimulated NF-KappaB p65 in human HeLa nuclear extract assessed as decrease in NF-KappaB translocation to nucleus measured after 5 hrs by ELISA", "in_short": "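Cells treated with four concentrations (0.05–50 μM) plus TNF-α for 5 h; nuclear extracts prepared and NF-κB p65 translocation to nucleus read as absorbance in an ELISA format; IC50 by non-linear curve fitting.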"}
{"smiles": "COc1ccc([C@@]23Oc4cc(OC)cc(OC)c4[C@]2(O)[C@H](O)[C@H](C(=O)N(C)C)[C@H]3c2ccccc2)cc1", "note": "[Rocaglamide]", "values": [{"measurement": "IC50", "result": 120, "unit": "nM"}]}
